IC50 data for one substance are collected here from patent US20230295238A1, “INSULIN RECEPTOR-MEDIATED ENHANCEMENT OF GENE TRANSFER” (THE SCRIPPS RESEARCH INSTITUTE, priority 2020, published 2023).

This assay has as its system HEK293T cells. Type of assay: cell-based, human. As to conditions: IR-Fc preincubated with FLuc-encoding eAAV9; luciferase activity 24 h; read-out: IC50 of IR-Fc for decrease in transduction by eAAV9.

Usually IC50 stands for the midpoint of a concentration-inhibition curve. For the substance “IR-Fc: construct consisting of the human IR ectodomain fused to an Fc tag, used as a transduction inhibitor”, the IC50 is 0.6 nM.
